Data taken from ChEMBL document CHEMBL4190333, “Cyclic Biphalin Analogues Incorporating a Xylene Bridge: Synthesis, Characterization, and Biological Profile” (ACS Med Chem Lett, 2017).

Organism: Rattus norvegicus
Experiment: Selectivity ratio of Ki for displacement of [3H]lleDelt2 from DOR in Wistar rat whole brain membranes to displacement of [3H]DAMGO from MOR in Wistar rat whole brain membranes
Assay type: cell membranes

With `C[C@@H](NC(=O)[C@@H](N)Cc1ccc(O)cc1)C(=O)NCC(=O)N[C@@H](Cc1ccccc1)C(=O)NNC(=O)[C@H](Cc1ccccc1)NC(=O)CNC(=O)[C@@H](C)NC(=O)[C@@H](N)Cc1ccc(O)cc1` [BIPHALIN] the Ratio Ki was 4.4.
